Laboratory results taken from BindingDB's records for 16201766 (Probiodrug, 2005).

By UniProt entry, the sequences of proteins in these tests, tags left out.
UniProt Q9CYK2, whole entry, looked up: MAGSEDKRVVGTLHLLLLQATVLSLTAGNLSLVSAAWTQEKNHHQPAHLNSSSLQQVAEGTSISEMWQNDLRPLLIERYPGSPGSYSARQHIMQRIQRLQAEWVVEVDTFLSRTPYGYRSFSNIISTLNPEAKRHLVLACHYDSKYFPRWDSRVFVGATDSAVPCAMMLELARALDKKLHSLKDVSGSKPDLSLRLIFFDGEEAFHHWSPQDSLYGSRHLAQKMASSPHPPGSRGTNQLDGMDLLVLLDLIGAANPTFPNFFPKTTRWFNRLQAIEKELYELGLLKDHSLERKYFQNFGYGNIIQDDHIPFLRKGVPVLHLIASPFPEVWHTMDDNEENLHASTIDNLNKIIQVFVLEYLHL

Target: Glutaminyl-peptide cyclotransferase (Mus musculus, UniProt Q9CYK2)
Details: pH 8

Row | SMILES | Ki [µM]
1 | CCN(CC)CCS | 10.9
2 | CN(C)CCS | 29
